In this assay the target is T1, Nostoc linoleate 10S-dioxygenase (10S-DOX) (Nostoc punctiforme, UniProt B2J5P4).
T1 sequence (B2J5P4 1-542): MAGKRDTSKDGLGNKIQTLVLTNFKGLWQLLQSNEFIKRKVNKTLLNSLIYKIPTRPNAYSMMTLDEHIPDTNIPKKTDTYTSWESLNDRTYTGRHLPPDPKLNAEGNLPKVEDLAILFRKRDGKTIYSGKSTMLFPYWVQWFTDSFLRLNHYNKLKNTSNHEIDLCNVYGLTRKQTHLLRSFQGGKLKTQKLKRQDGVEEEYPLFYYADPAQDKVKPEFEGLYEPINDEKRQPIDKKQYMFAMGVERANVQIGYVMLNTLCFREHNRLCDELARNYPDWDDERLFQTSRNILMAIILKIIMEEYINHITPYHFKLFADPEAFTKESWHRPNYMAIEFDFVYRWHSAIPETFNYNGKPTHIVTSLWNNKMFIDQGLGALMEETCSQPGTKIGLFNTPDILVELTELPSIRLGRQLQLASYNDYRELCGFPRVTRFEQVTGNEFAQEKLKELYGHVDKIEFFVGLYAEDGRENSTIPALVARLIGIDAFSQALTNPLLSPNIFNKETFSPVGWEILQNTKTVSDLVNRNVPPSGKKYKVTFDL
Nature of the assay: oxygen uptake assay, Lineweaver-Burk and Dixon plots. Type of assay: biochemical.

By Ki is commonly meant a measure of affinity in units of concentration, obtained from inhibition or displacement. Higher therefore signals weaker binding.

Compound `CCCCC/C=C/C=C/C=C/CCCCCCC(=O)O` [β-CA, β-calendic acid] gave an inhibition constant (Ki) of 46 nM.
